In article PMC9628480, “Discovery and structural characterization of chicoric acid as a SARS-CoV-2 nucleocapsid protein ligand and RNA binding disruptor” (Scientific Reports, 2022):

Assays:
[1] = target: T1, SARS-CoV-2 N protein (full-length) (Severe acute respiratory syndrome coronavirus 2, UniProt P0DTC9); assay: DLS aggregation assay of N protein; details: compound 20 µM, two-fold molar excess
T1 construct: made in house; host or cells: Escherichia coli BL21 (DE3)

N protein-RNA1 complex = target: T2, N protein-RNA1 complex (Severe acute respiratory syndrome coronavirus 2, UniProt P0DTC9); assay type: binding, SARS-CoV-2
T2 construct: made in house; host or cells: Escherichia coli BL21 (DE3)

O=C(O)C[C@@H]1C(=O)O[C@H]2[C@H](OC(=O)c3cc(O)c(O)c(O)c3)[C@@H](OC(=O)c3cc(O)c(O)c4c3[C@H]1[C@H](O)C(=O)O4)[C@H](OC(=O)c1cc(O)c(O)c(O)c1)O[C@@H]2COC(=O)c1cc(O)c(O)c(O)c1 [Chebulinic acid]
effect on hydrodynamic radius (Rh) / oligomeric state of the N protein (DLS) [1]: did not significantly change
binding affinity of the N protein to RNA1 in the presence of compound (N protein-RNA1 complex): significantly reduced
